Reference: patent US9493511B2, “Cyclosporin analogs” (Allergan, Inc., priority 2010, dated 2016)

Test system: Spleen cells from C57BL/6 (responder) and BALB/c (stimulator) mice
Test: Mixed lymphocyte reaction (MLR) assay
Format: cell-based
Settings: read-out: MLR nM; mouse spleen cells, five days, 3H-thymidine proliferation

[(S)-2-Aminoethylthiomethyl-Sar]^3 cyclosporin A
IC50: 10400 nM

[(S)-2-Dimethylaminoethylthiomethyl-Sar]^3 cyclosporin A
IC50: 4600 nM
